In the test the target is T1, human CCR7 (Homo sapiens, UniProt P32248).
T1 construct: expressed in transfected cells
T1 sequence (P32248 25-378): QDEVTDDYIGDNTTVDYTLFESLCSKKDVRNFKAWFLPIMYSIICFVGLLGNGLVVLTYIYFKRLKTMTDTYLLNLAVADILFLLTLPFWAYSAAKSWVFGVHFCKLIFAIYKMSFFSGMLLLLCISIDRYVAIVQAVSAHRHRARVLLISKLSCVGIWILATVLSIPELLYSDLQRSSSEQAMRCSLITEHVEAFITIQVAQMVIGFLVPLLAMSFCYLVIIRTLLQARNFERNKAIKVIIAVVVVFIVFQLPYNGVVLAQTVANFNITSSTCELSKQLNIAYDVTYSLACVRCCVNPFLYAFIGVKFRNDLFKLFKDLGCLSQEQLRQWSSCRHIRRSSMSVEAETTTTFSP
Put plainly: CCL19-induced calcium mobilization assay, U87.CD4 cells expressing CCR7. The settings on record: inhibition of CCL19 induced intracellular calcium flux; Mean ± SD of at least three independent experiments. It counts as cell-based. As to the method:
U87.CD4 cells that stably express either human CCR7, CXCR2, CCR5 or CXCR4 were seeded (20,000 cells/well) in gelatin-coated black-walled polystyrene 96-well plates with clear bottom and incubated overnight at 37°C and 5% CO2. […] Culture medium was removed, and cells were incubated for 45 min at room temperature in the dark. […] Exactly the same protocol was used to record calcium responses in Chinese hamster ovary (CHO)-K1 cells, upon stimulation with adenosine triphosphate (ATP, purchased from Sigma).

For the substance Maraviroc [reference compound], the IC50 was over 50 µM.

By IC50 is commonly meant the point on the concentration scale where inhibition reaches its midpoint.
